This experiment deals with T1, cPLA2 (Homo sapiens, UniProt P47712).
T1 sequence (P47712 1-749): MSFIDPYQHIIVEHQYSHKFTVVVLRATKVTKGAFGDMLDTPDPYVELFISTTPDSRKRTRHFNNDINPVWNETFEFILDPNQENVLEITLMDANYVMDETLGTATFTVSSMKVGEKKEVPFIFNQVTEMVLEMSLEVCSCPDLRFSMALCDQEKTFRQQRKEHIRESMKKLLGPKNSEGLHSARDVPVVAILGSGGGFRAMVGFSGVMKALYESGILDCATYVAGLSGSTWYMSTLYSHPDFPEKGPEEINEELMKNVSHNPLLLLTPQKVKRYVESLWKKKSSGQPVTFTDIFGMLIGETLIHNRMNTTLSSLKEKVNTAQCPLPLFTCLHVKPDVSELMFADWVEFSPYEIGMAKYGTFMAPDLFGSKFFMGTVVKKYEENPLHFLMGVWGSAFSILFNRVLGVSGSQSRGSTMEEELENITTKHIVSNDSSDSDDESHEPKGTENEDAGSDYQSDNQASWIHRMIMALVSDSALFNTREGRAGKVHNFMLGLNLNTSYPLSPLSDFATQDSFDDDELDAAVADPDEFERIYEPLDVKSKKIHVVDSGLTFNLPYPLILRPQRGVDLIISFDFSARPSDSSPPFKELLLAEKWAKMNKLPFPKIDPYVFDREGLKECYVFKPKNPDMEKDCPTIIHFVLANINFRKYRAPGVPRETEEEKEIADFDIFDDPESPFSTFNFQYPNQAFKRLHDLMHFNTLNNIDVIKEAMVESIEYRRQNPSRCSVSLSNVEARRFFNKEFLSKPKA
The experiment can be described thus: Coumarine Assay (hydrolysis of 7-hydroxycoumarinyl 6-heptenoate by cPLA2, fluorometric). The class given is biochemical. The conditions noted are these: 60 μM 7-hydroxycoumarinyl 6-heptenoate substrate, 4 μg cPLA2, pH 7.5; excitation 360 nm, emission 460 nm; read-out: Coumarin IC50.

Our source for the IC50 values is US7713964B2, “Methods for treating asthmatic conditions” (Wyeth LLC, priority 2001, dated 2010).

As to “4-(2-{1-benzhydryl-5-chloro-2-[2-(2-methoxy-phenyl-sulfanylmethanesulfonylamino)-ethyl]-1H-indol-3-yl}-ethoxy)-benzoic acid [Example 83]”, the IC50 was determined as 450 nM.

For orientation: IC50 means the point on the concentration scale where inhibition reaches its midpoint.
